## Antibody variant affinities, Ab-14 heavy chain, assay 1

Target peptide (SARS-CoV-2 spike, HR2 region): PDVDLGDISGINAS

Each scFv is VH, three GGGGS repeats, VL, as in the parent Ab-14, and differs from it in the CDRs of the heavy chain only.
VH: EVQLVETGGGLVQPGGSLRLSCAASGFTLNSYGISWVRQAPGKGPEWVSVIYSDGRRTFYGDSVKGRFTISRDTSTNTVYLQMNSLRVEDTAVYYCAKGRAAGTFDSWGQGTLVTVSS
VL: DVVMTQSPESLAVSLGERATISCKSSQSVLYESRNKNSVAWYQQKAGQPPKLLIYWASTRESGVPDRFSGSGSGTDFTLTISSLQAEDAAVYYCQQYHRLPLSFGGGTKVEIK

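In library AAYL49, one, two or three CDR residues were substituted; doubles and triples were drawn at random. The scFvs were displayed on barcoded MATa yeast, the peptide on MATalpha yeast. The frequency of each diploid, read from paired DNA barcodes, reflects how well the two displayed proteins bind. Each replicate has its own calibration line, from reference interactions of the BCL2 family. Each pool was mated in three replicate cultures.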

Positions count from residue 1 of the parent VH; R57M puts M in place of R. This list gathers variants with a substitution at R57 (VH, numbered from residue 1). Affinities are written as log10 Kd with Kd in nM; a lower number is a better binder. Averages over replicates are reported, and they cover detected replicates only. A pair that was not seen in that replicate is written "nd"; this usually means weak binding, but a binder can also be missed. For reference, the parent read 0.65 as the reference entry and 4.11 (one replicate of three) as a member of this library. Background: pairings of library AAYL49 with three empty control strains gave a value in 15% of cases (median 4.06, 5th percentile 2.83). Values in that range, when seen in few replicates, are hard to tell from nonspecific mating. The control count says in how many pairings with the empty strains this scFv gave a signal.

The variant R57M/D62E/S107Q showed nd, nd, nd (controls 2 of 9). The variant S53Q/R57A/S63R showed nd, nd, nd (controls 0 of 9). For I34N/R57D/K65L, the assay gave nd, nd, nd (controls 0 of 9). With R57Q/G61M/R100K the result was nd, nd, nd (controls 0 of 9). With R57N/F59I/G99V the result was nd, 4.25, nd (controls 1 of 9). With N30E/S53A/R57P the result was nd, nd, nd (controls 0 of 9).

The variant L29G/S53P/R57N gave nd, nd, nd (controls 1 of 9). The variant R57K/V64Q/A102T showed nd, nd, 1.94 (controls 0 of 9). With R56T/R57N/G99H the result was nd, nd, nd (controls 0 of 9). With V50P/R57P/D106F the result was nd, nd, nd (controls 0 of 9). With D54P/R57I/S107G the result was nd, nd, nd (controls 0 of 9). The variant L29H/R57H/T58A showed nd, nd, nd (controls 2 of 9).

The variant R57L/A101V/A102P showed nd, nd, 3.00 (controls 2 of 9). With V50N/R57E/T58I the result was nd, nd, nd (controls 3 of 9). For R57K/D106F, the assay gave 1.48, 1.47, 1.23 (mean 1.40; controls 1 of 9). The variant I34V/G55W/R57A showed nd, nd, nd (controls 0 of 9). The variant R57Q/S63H/V64Q showed nd, nd, 4.74 (controls 0 of 9). With Y52E/R56M/R57Y the result was nd, nd, nd (controls 0 of 9).

The variant N30G/R57H/R100M gave 4.20, 3.48, 2.25 (mean 3.31; controls 2 of 9). For S31G/R57S/D62P, the assay gave nd, 4.31, nd (controls 4 of 9). For T28H/R57I/V64R, the assay gave nd, nd, nd (controls 0 of 9). For T28R/R57C/D106C, the assay gave nd, nd, nd (controls 1 of 9). With L29G/V50E/R57C the result was nd, nd, 3.72 (controls 3 of 9). For N30W/R57V/G99K, the assay gave nd, nd, nd (controls 0 of 9).

The variant N30P/R57F/D106A gave 6.00, 4.01, 6.31 (mean 5.44; controls 5 of 9). For S35E/R57M/G61I, the assay gave nd, nd, 3.95 (controls 4 of 9). The variant G26H/T28G/R57M gave nd, nd, nd (controls 1 of 9). For G33A/R57T/D62F, the assay gave nd, nd, nd (controls 1 of 9). The variant Y32G/R57F/T58W showed nd, 4.69, 5.69 (mean 5.19; controls 3 of 9). With I34K/R57W/D62V the result was nd, nd, nd (controls 0 of 9).

For R57M/G99P, the assay gave 3.06, 4.97, nd (mean 4.01; controls 2 of 9). The variant S35W/R57H/F105M gave 4.15, nd, nd (controls 1 of 9). For R57L/K65F/R100Q, the assay gave nd, nd, nd (controls 0 of 9). The variant G33Q/R57D gave nd, nd, nd (controls 3 of 9). With S35E/R57W/K65W the result was nd, nd, nd (controls 3 of 9).

Top 3 of the variants detected in all replicates, tightest first:

| changes | log10 Kd (nM) by replicate | mean, log10 nM | control signals |
|---|---|---|---|
| R57K/D106F | 1.48, 1.47, 1.23 | 1.40 | 1 of 9 |
| N30G/R57H/R100M | 4.20, 3.48, 2.25 | 3.31 | 2 of 9 |
| N30P/R57F/D106A | 6.00, 4.01, 6.31 | 5.44 | 5 of 9 |

Data: MIT Lincoln Laboratory AlphaSeq set, Engelhart et al. 2022, doi:10.1038/s41597-022-01779-4, as distributed in FLAb.